Blank lines part the entries; values can stand above or below the substance they belong to.
Legend:
[1] = target: MalFGK2 complex (maltose ABC transporter), His6 on MalK, reconstituted in nanodiscs or in proteoliposomes (E. coli K12) (UniProt P02916)
[2] = target: MalFGK2 complex (maltose ABC transporter), His6 on MalK, reconstituted in nanodiscs or in proteoliposomes (E. coli K12) (UniProt P02916); experiment: co-sedimentation; MalFGK2 proteoliposomes (2 µM) incubated with [^125I]-MalE or variants in 20 mM Tris-HCl pH 8, 10 mM MgCl2 with AMP-PNP (1 mM), 10 min 37°C; diluted 25-fold, ultracentrifugation (100,000 x g, 1 h); SDS-PAGE, Coomassie and autoradiography
[3] = target: MalFGK2 complex (maltose ABC transporter), His6 on MalK, reconstituted in nanodiscs or in proteoliposomes (E. coli K12) (UniProt P02916); remark: listed apart in the source
[4] = target: MalFGK2 complex (maltose ABC transporter), His6 on MalK, reconstituted in nanodiscs or in proteoliposomes (E. coli K12) (UniProt P02916); experiment: co-sedimentation; as a7 but with AMP-PNP (1 mM) and maltose (1 mM)

apparent Km for MalE-DW of the steady-state transport ATPase of MalFGK2 proteoliposomes, maltose 2 mM [1]: 25 µM | fold less co-sedimentation than MalE-wt [2]: 5 fold
Substance: MalE-A96W/I329W (from UniProt P0AEX9 27-396) (natural protein)

apparent Km for MalE-254 of the steady-state transport ATPase of MalFGK2 proteoliposomes, maltose 2 mM [1]: 4 µM
Substance: MalE-254 (mutation D65N) (from UniProt P0AEX9 27-396) (natural protein)

fold increase of the rate of ATP hydrolysis of MalFGK2 (2 µM) by MalE (2 µM), 37°C, in detergent [3]: 1.3 fold | fold increase of the rate of ATP hydrolysis of MalFGK2 (2 µM) by MalE (2 µM), 37°C, in disc [3]: 3 fold | fold increase of the rate of ATP hydrolysis of MalFGK2 (2 µM) by MalE (2 µM), 37°C, in the membrane (proteoliposomes) [3]: 4 fold | apparent Km for MalE of the steady-state transport ATPase of MalFGK2 proteoliposomes, maltose 2 mM [1]: 14 µM | fold reduction of the equilibrium binding affinity by maltose against AMP-PNP alone [4]: > 3 fold | fold increase of the affinity for MalE with AMP-PNP against no nucleotide [2]: > 30 fold
Substance: MalE (maltose-binding protein), wild type (from UniProt P0AEX9 27-396) (natural protein)
